Results from paper PMC9781916, “Antipsychotic- and Anxiolytic-like Properties of a Multimodal Compound JJGW08 in Rodents” (International Journal of Molecular Sciences, 2022).

Tested on: mice
Assay: Catalepsy bar test in mice
Format: in vivo
Procedure: The minimum cataleptogenic dose was defined as the lowest dose inducing a mean catalepsy score of ≥1 at 30, 60, or 120 min post-treatment.
Catalepsy was assessed using the bar method described by Ueki et al. with minor modifications. The front paws of the mice were placed on a cylindrical metal bar located 4 cm above the tabletop’s surface, while the hind paws remained on the tabletop. The time in which the animal held both paws on the bar was measured at 30, 60, and 120 min after the administration of the tested compound, with a maximum measurement time of 60 s. Each of the measurements consisted of placing the animal’s paws on the bar three times unless the mouse was on it for 60 s; then, no further trial was performed. The score for each trial was assessed as follows: • - 0 points if the animals held the constrained position < 15 s; • - 1 point when the animal stayed on the bar for 15–29.9 s; • - 2 points for when the animal stayed on the bar for 30–59.9 s; • - 3 points for staying on the bar for more than 60 s.
The minimum cataleptogenic dose was defined as the lowest dose inducing a mean catalepsy score of ≥1 at 30, 60, or 120 min post-treatment. The tested compound was administered ip at the dose range of 5–20 mg/kg.

For `Cc1cc2c(s1)Nc1ccccc1N=C2N1CCN(C)CC1` [Olanzapine, reference compound], which “Mean Score (catalepsy)” value (5 mg/kg ip, 30 min) is on record?
Its value is 0.8.

What about the “Mean Score (catalepsy)” value (5 mg/kg ip, 60 min) of the same compound?
Its value is 0.8.

What about the “Mean Score (catalepsy)” value (5 mg/kg ip, 120 min) of the same compound?
Its value is 0.7.

And the “Mean Score (catalepsy)” value (10 mg/kg ip, 30 min)?
Its value is 0.7.

And the “Mean Score (catalepsy)” value (10 mg/kg ip, 60 min)?
The value was 1.6.

And the “Mean Score (catalepsy)” value (10 mg/kg ip, 120 min)?
The value was 1.3.

And the “Mean Score (catalepsy)” value (20 mg/kg ip, 30 min)?
Its value is 0.7.

What about the “Mean Score (catalepsy)” value (20 mg/kg ip, 60 min) of the same compound?
The value was 2.0.

What about the “Mean Score (catalepsy)” value (20 mg/kg ip, 120 min) of the same compound?
The value was 1.8.

What about the “minimum (lowest) cataleptogenic dose” value (ip, lowest dose with mean catalepsy score ≥1 at 30, 60 or 120 min) of the same compound?
Its value is 10 mg/kg.
